Assay results taken from PubChem BioAssay AID1259397 (Fisher Drug Discovery Resource Center, 2018).
The entries are a selection whose mix differs from that of the whole data set. Some of these compounds have results that are not shown, active ones among them. The source made the active and inactive calls.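 The calls were made as follows: active = inhibition of cGAS enzyme activity at or above 60%; inactive = the rest.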

The chains behind the UniProt entries cited, without tags or fusion partners.
UniProt Q8C6L5, whole entry: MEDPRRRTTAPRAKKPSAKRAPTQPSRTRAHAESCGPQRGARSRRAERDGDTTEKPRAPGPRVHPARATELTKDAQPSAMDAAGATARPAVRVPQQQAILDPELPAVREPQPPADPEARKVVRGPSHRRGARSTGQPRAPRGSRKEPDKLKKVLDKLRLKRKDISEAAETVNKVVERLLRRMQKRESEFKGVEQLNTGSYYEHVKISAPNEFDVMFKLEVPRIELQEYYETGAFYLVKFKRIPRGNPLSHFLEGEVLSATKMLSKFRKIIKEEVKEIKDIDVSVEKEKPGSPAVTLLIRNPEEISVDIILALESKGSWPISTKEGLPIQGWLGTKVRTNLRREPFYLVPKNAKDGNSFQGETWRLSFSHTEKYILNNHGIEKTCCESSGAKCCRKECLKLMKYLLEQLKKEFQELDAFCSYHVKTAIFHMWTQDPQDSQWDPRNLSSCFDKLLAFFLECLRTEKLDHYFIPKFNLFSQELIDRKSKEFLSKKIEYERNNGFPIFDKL

biological target: Cyclic GMP-AMP synthase (Mus musculus) (UniProt Q8C6L5); experiment: inhibitors of Mus musculus cyclic GMP-AMP synthase, initial high-throughput assay, cell-free, RapidFire MS (AID 1259397); details: recombinant mouse cGAS, cGAMP by RapidFire MS; at 12.5 µM; hits give high values;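 also: enzyme stimulated by 45 bp dsDNA with ATP and GTP substrates; cGAMP share of summed cGAMP plus half ATP and half GTP signals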

| SMILES | inhibition |
| --- | --- |
| CN(C)C1(CNC(=O)c2cc(Br)c(Br)s2)CCCCC1 | inactive: -6.54% |
| N#CC(C#N)=Cc1ccc(Br)cc1 | inactive: 30.8% |
